This is an account of results in ChEMBL document CHEMBL6083227, “Novel sulfonamides unveiled as potent anti-lung cancer agents via tumor pyruvate kinase M2 activation” (RSC Med Chem, 2024).

The test system of one experiment is A549. Nature of the experiment: Antiproliferative activity against human A549 cells incubated for 48 hrs by Alamar blue staining based assay. The following applies: A549, 48 h. In general terms: Alamar Blue is a resazurin reagent that responds to reducing activity.
A further experiment has as its system BEAS-2B. The experiment in a line: Antiproliferative activity against human BEAS-2B cells incubated for 48 hrs by Alamar blue staining based assay.

In the case of `O=C(CN1CCN(S(=O)(=O)c2ccc(Br)cc2)CC1)c1cnc2ccccn12`, the results for the IC50 in the experiment with A549 and with BEAS-2B were 1.74 µM and 64.2 µM, respectively.
For `N#Cc1ccccc1S(=O)(=O)N1CCN(CC(=O)c2cnc3ncccn23)CC1`, in that order: 1.72 µM and 46.3 µM.
For `O=C(CN1CCN(S(=O)(=O)c2ccc(Br)cc2)CC1)c1cnc2ncccn12`, in that order: 1.33 µM and 20.8 µM.
For the compound `O=C(CN1CCN(S(=O)(=O)c2ccc(Cl)s2)CC1)c1cnc2ccccn12`, the IC50 (in general, the concentration needed to halve the response being measured) in the experiment on A549 came to 1.32 µM; in the experiment on BEAS-2B, 48.9 µM.
For `O=C(CN1CCN(S(=O)(=O)c2ccc(Cl)s2)CC1)c1cnc2ncccn12`, in that order: 1.75 µM and 9.29 µM.
Turning to `COc1ccc(S(=O)(=O)N2CCN(CC(=O)c3cnc4ncccn34)CC2)cc1`, the IC50 in the experiment with A549 was 1.48 µM; in the experiment with BEAS-2B it was 28.4 µM.
For `O=C(CN1CCN(S(=O)(=O)c2cccs2)CC1)c1cnc2ncccn12`, in that order: 1.47 µM and 45 µM.
Turning to `COc1ccc(Br)cc1S(=O)(=O)N1CCN(CC(=O)c2cnc3ncccn23)CC1`, the results for the IC50 with A549 and in the experiment with BEAS-2B were 1.54 µM and 39.1 µM, respectively.
In the case of `Cc1ccc(S(=O)(=O)N2CCN(CC(=O)c3cnc4ccccn34)CC2)cc1`, the IC50 in the experiment with A549 was 1.67 µM; with BEAS-2B, 51.1 µM.
Take `Cc1cc(C)c(S(=O)(=O)N2CCN(CC(=O)c3cnc4ncccn34)CC2)c(C)c1`: the half-inhibitory concentration (IC50) in the experiment with A549 was determined as 1.06 µM; in the experiment with BEAS-2B, 51.4 µM.
For `O=C(CN1CCN(S(=O)(=O)c2ccc(F)cc2)CC1)c1cnc2ncccn12`, in that order: 1.48 µM and 20 µM.
For the compound `O=C(CN1CCN(S(=O)(=O)C2CC2)CC1)c1cnc2ccccn12`, the figures for the IC50 with A549 and in the experiment on BEAS-2B were 1.24 µM and 50.5 µM, respectively.
